RAD54 branch = blocks human RAD54 Holliday junction branch migration; Q92698; FAM/BHQ fluorescence; inhibition, % at 10.4 µM; 360,000 compounds, 0.14% hits;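 active means mean normalized replicate activity at least 40 and at least half of replicates scoring 40 or more; inconclusive means only one of the two criteria met; inactive means mean below 40 and under half of replicates reaching 40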;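 further: inhibitors cause a drop in the FAM fluorescence signal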
E-selectin induc = E-selectin induction on HUVECs | AID 686992 | HUVEC E-selectin immunofluorescence imaging; normalized: neutral wells 0, TNF-alpha wells 100 | P16581 | 260,000 compounds, 0.37% hits | activation, % at 7.58 µM;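 active means mean E-selectin-positive cell signal at least 10% of the positive control, reached in at least 60% of replicates, without over 20% cell loss; inconclusive means no rule given, readout overlaps actives, possibly toxicity-flagged; inactive means the rest, including those meeting only one limit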
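Material: HUVEC primary endothelial cells; Amount: 3,000 cells per well; Dosing: single concentration; Medium: EGM-2 growth medium on 0.1% gelatin-coated wells; Read-out basis: percent E-selectin-positive cells; Signal: immunofluorescence imaging; Control set: TNF-alpha, DMSO.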
UUG fidelity = alters start codon recognition fidelity in yeast; S. cerevisiae UUG-firefly luciferase reporter, luminescence/redox ratio; activity score, % at 18.7 µM; actives 0.13% (n = 350,000); AID 602363;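 active = replicate mean at a twofold rise or more, about +100% in these data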;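 also: firefly luciferase made from a UUG start codon reports start codon fidelity; reporter light over untreated wells divided by growth signal over untreated wells; some hits fall short of that in this replicate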
MLL AF4-AF9 inh = inhibitors of human MLL-AF4/AF9 interaction; AlphaScreen, biotin-AF4 peptide binding to FLAG-AF9; inhibition, % at 10 µM; 350,000 compounds, 0.47% hits;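 active means every replicate reaching a set inhibition limit, whatever the replicate mean, cut at about 25% in these data; inconclusive means mean inhibition reaches that limit but some replicates miss it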
RAD52 anneal inh = RAD52 (human) annealing inhibition. 360,000 compounds, 0.46% hits. inhibition, % at 18.7 µM. recombinant RAD52 DNA annealing, FRET fluorescence. P43351;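 active means every replicate showing at least 50% inhibition; inconclusive means mean inhibition at least 50% but not in every replicate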
SIRT5 inh = blocks human SIRT5 desuccinylation of peptide | inhibition, % at 15 µM | Q9NXA8 | 330,000 compounds, 1.1% hits | Purified SirT5, succinyl-peptide AMC, trypsin-coupled fluorescence | AID 652115; in the data active means inhibition above about 15%; inconclusive means no clear call, values can overlap the other calls
DNA binder FP = counter-screen for RAD52 inhibitors: DNA binding compounds | shares compounds with RAD52 anneal inh | Salmon sperm DNA/acridine orange FP displacement | AC50, µM | 1,000 compounds, 8% hits | AID 652128;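 active means fitted half-maximal concentration for signal loss at or below twice the highest dose tested, in every separate run, actives reach about 64 µM in these data; inconclusive means runs disagree, or flat partial signal loss, or poor fit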
Of the large screens only hits and unclear results are named; the others gave an inactive call (follow-up assays come after a bar, where they were run); ! = repeats disagree. This is a sample that favours compounds with a hit; in the whole collection about 1.8% have one here.

C[C@H]1CN([C@@H](C)CO)C(=O)c2cc(NC(=O)Nc3ccc(F)cc3)ccc2O[C@H]1CN(C)Cc1ccc(Cl)c(Cl)c1	none (no result: E-selectin induc)
C[n+]1ccc(/C=C/c2ccccc2O)c2ccccc21	RAD52 anneal inh 54 (no result: RAD54 branch, E-selectin induc, UUG fidelity) | DNA binder FP 46µM
COc1ccc(-c2cnc3c(c2)C(=O)N([C@H](C)CO)C[C@@H](C)[C@H](CN(C)C(=O)Cc2cccnc2)O3)cc1	none
CN(C)CCCNc1ncnc2oc(-c3ccccc3)c(-c3ccccc3)c12	none | DNA binder FP inactive
Cn1c(=Nc2ccc(N3CCOCC3)cc2)ccc2ccccc21	none (no result: E-selectin induc, MLL AF4-AF9 inh, RAD52 anneal inh, SIRT5 inh)
Cn1c(N=Nc2ccc(N3CCOCC3)cc2)[n+](C)c2ccccc21	RAD54 branch 92, MLL AF4-AF9 inh 58, RAD52 anneal inh 103 | DNA binder FP 11µM
CN1CCN(CCCCC(=O)c2ccccc2)CC1	none (no result: E-selectin induc, MLL AF4-AF9 inh, RAD52 anneal inh, SIRT5 inh)
CN1CCN(CCCC(=O)c2ccc(C3CCCC3)cc2)CC1	RAD52 anneal inh 68 (no result: RAD54 branch, UUG fidelity) | DNA binder FP inactive
c1ccc2c(NCCCN3CCOCC3)c3ccccc3nc2c1	RAD52 anneal inh 93 (no result: RAD54 branch, E-selectin induc, UUG fidelity) | DNA binder FP 33µM
CCCNC(=O)N1C[C@H]2[C@@H](c3ccccc31)[C@@H](CO)N2C(=O)c1ccncc1	none
C=CC[N@@+]12CC[C@]34c5ccccc5N5/C=C6\C7N(/C=C(\C53)[C@@H](C[C@@H]41)/C(=C/CO)C2)c1ccccc1[C@@]71CC[N@@+]2(CC=C)C/C(=C\CO)[C@@H]6C[C@@H]12 (stereo partly specified)	RAD52 anneal inh 69 | DNA binder FP inactive
NCCCC[C@@H]1NC(=O)c2cc([N+](=O)[O-])cc(F)c2NCCCC[C@@H](C(N)=O)NC(=O)[C@H](CCC(N)=O)NC1=O	MLL AF4-AF9 inh 27, RAD52 anneal inh 80 (no result: SIRT5 inh) | DNA binder FP inactive
C[C@@H]1NC(=O)[C@H](CCC(N)=O)NC(=O)c2cc([N+](=O)[O-])cc(I)c2NCCC[C@@H](C(N)=O)NC1=O	none
NC(=O)[C@@H]1CCCCNc2c(F)cc([N+](=O)[O-])cc2C(=O)N[C@@H](CCCN=C(N)N)C(=O)NCC(=O)N1	RAD52 anneal inh 61 (no result: SIRT5 inh) | DNA binder FP inactive
C[C@@H]1NC(=O)[C@H](CCCN=C(N)N)NC(=O)c2cc([N+](=O)[O-])cc(I)c2NCCC[C@@H](C(N)=O)NC1=O	RAD52 anneal inh 86 | DNA binder FP inactive
Cc1cc(C)cc(NC(=O)Nc2ccc3c(c2)C(=O)N(C)[C@@H]2CC[C@H](CC(=O)O)O[C@@H]2CO3)c1	none (no result: MLL AF4-AF9 inh, RAD52 anneal inh, SIRT5 inh)
O=C(NC[C@H]1CC[C@@H]2[C@@H](CN2S(=O)(=O)c2ccccc2[N+](=O)[O-])O1)C1CCC1	none (no result: RAD54 branch, E-selectin induc, UUG fidelity)
Cc1nc(Nc2nc(CSc3nc4ccccc4[nH]3)cc(=O)[nH]2)nc2ccccc12	none (no result: E-selectin induc, MLL AF4-AF9 inh, RAD52 anneal inh, SIRT5 inh)
Cc1nc(Nc2nc(-c3ccccc3)cc(=O)[nH]2)nc2ccccc12	RAD52 anneal inh 95 (no result: E-selectin induc, MLL AF4-AF9 inh) | DNA binder FP inactive
Cc1cccc(-c2ccc([C@H]3[C@H]4CN(C(=O)c5ccc6c(c5)OCO6)CCCCN4[C@H]3CO)cc2)c1	none
c1ccc(Nc2ccc(NCCc3c[nH]c4ccccc34)cc2)cc1	RAD52 anneal inh 78 (no result: RAD54 branch, UUG fidelity, MLL AF4-AF9 inh) | DNA binder FP inactive
Cc1ccc(-c2csc(N3CCN(c4cc5c(cc4Cl)nc(C)n5CCN4CCCCC4)CC3)n2)cc1	none (no result: E-selectin induc)
Cc1csc(N2CCN(c3cc4c(cc3Cl)nc(-c3ccncc3)n4CCCN3CCCC3)CC2)n1	RAD52 anneal inh 98 | DNA binder FP inactive
CCS(=O)(=O)Nc1ccc2c(c1)C(=O)N(C)C[C@H](OC)[C@@H](C)CN(CC1CCCCC1)[C@H](C)CO2	none
CCCCOc1cc(C(=O)OCCN(CC)CC)ccc1N	RAD52 anneal inh 85! | DNA binder FP inactive
O=C(C[C@@H]1C[C@H]2c3cc(NC(=O)c4ccc5c(c4)OCO5)ccc3O[C@H]2[C@H](CO)O1)NCCc1ccccc1	none (no result: UUG fidelity)
O=C(NCC1CCCO1)c1nnc(Cc2ccc(F)cc2)o1 (stereo unspecified)	RAD52 anneal inh 53 (no result: SIRT5 inh) | DNA binder FP inactive
CCN1CCN(c2ccc(N=Cc3ccccc3O)cc2)CC1	MLL AF4-AF9 inh 57, RAD52 anneal inh 99 (no result: RAD54 branch, UUG fidelity) | DNA binder FP inactive
CC(=O)Nc1ccc(CNc2nc(NC(C)C)nc3cc(-c4ccccc4)sc23)cc1	E-selectin induc 33, RAD52 anneal inh 97 (no result: UUG fidelity) | DNA binder FP inactive
COc1ccccc1CNc1nc(NCc2ccc(NC(C)=O)cc2)c2sccc2n1	RAD52 anneal inh 51 | DNA binder FP inactive
C=CCNc1nc(NCc2ccc(NC(C)=O)cc2)c2sc(-c3ccccc3)cc2n1	none
O=C(Nc1ccccc1F)N1CC(=O)N2[C@H](CO)[C@H](c3ccc(C#CC4CCCC4)cc3)[C@@H]2C1	none (no result: RAD54 branch, UUG fidelity)
CN1CCN(c2ccc(NC(=O)c3ccc(-c4cccc([N+](=O)[O-])c4)o3)cc2)CC1	RAD52 anneal inh 58 (no result: RAD54 branch, E-selectin induc, UUG fidelity) | DNA binder FP inactive
C[C@@H]1CN([C@@H](C)CO)S(=O)(=O)c2ccc(Br)cc2O[C@@H]1CN(C)C	none
O=C1c2cccc(NCCNCCO)c2C(=O)c2cccc(NCCNCCO)c21	MLL AF4-AF9 inh 46, RAD52 anneal inh 63 (no result: RAD54 branch, UUG fidelity) | DNA binder FP 4µM
O=C(O)c1ccccc1NCCO	none (no result: RAD54 branch, E-selectin induc, UUG fidelity)
CC(C(=O)c1ccc(-c2ccccc2)cc1)[n+]1cccc(NC(=O)c2ccccc2)c1 (stereo unspecified)	RAD54 branch inconclusive, MLL AF4-AF9 inh inconclusive, RAD52 anneal inh 58 (no result: E-selectin induc) | DNA binder FP inactive
CC(C(=O)c1ccccc1)[n+]1cccc(Br)c1 (stereo unspecified)	none
Cc1ccc2c(c1)c1c3n2CCN(CC(O)CNC(C)C)C3CCC1 (stereo unspecified)	RAD54 branch inconclusive, RAD52 anneal inh 82 | DNA binder FP inactive
C=CC(=O)Nc1cccc(Oc2cc(Cl)nc3[nH]ccc23)c1	none (no result: MLL AF4-AF9 inh, SIRT5 inh)
C=CC(=O)Nc1cccc(Oc2nc(Nc3ccc(N4CCN(C)CC4)cc3OC)ncc2Cl)c1	MLL AF4-AF9 inh 63, RAD52 anneal inh 95 (no result: RAD54 branch, UUG fidelity) | DNA binder FP inactive
Cc1cc(N2CCNC[C@@H]2C)ccc1N1CCN(Cc2ccccc2)[C@@H](C)C1	RAD52 anneal inh 51 (no result: RAD54 branch, UUG fidelity, MLL AF4-AF9 inh) | DNA binder FP inactive
Cc1cc(N2CCNC[C@H]2C)ccc1N1CCN(Cc2ccccc2)[C@@H](C)C1	none (no result: RAD54 branch, UUG fidelity, MLL AF4-AF9 inh)
N#C[C@H]1[C@H](c2ccccc2-c2cccc(F)c2)[C@@H](CO)N1C(=O)C1CCCC1	none (no result: RAD54 branch, UUG fidelity)
CCCCCCCCCCCCCCCC[n+]1ccccc1	RAD54 branch 55, E-selectin induc inconclusive, RAD52 anneal inh 93 | DNA binder FP inconclusive
CCCNC(=O)[C@@H]1[C@@H](CO)[C@@H]2Cn3c(ccc(-c4cccc(F)c4)c3=O)[C@H]1N2CCC	none (no result: UUG fidelity)
Cc1cc(C)c2sc(N(CCCN(C)C)C(=O)CN3C(=O)c4ccccc4C3=O)nc2c1	RAD52 anneal inh 67 | DNA binder FP inactive
Cc1ccc2nc(N(CCCN(C)C)C(=O)CCc3ccccc3)sc2c1	none (no result: RAD54 branch, UUG fidelity)

From PubChem
